The values that follow come from ChEMBL document CHEMBL4219021, “Discovery of a Small-Molecule Degrader of Bromodomain and Extra-Terminal (BET) Proteins with Picomolar Cellular Potencies and Capable of Achieving Tumor Regression” (J Med Chem, 2018).

Chains of the proteins cited; added tags and fusions are not shown.
UniProt P25440, whole entry: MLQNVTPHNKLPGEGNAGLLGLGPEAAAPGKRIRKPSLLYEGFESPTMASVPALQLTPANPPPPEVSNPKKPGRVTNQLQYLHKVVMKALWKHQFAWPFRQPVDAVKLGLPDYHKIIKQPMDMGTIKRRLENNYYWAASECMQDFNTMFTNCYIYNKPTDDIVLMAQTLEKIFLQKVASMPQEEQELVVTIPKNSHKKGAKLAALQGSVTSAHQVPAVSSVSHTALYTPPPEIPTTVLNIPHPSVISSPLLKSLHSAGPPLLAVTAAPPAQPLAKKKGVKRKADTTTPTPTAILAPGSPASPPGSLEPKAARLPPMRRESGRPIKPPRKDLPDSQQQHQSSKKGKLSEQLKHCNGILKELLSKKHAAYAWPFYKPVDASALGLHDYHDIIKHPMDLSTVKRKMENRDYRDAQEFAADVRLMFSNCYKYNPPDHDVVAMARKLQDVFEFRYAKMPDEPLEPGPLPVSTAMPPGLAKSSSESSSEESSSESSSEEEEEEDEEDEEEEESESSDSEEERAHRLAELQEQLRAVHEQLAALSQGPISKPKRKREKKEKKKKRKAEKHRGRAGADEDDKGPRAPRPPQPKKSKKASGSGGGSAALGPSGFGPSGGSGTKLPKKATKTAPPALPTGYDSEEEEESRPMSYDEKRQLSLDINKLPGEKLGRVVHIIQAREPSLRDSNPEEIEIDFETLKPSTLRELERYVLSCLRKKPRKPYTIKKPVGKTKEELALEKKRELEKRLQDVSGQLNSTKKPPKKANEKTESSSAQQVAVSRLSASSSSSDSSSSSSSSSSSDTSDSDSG

For assay [1], the target named is T1, Bromodomain-containing protein 2 (Homo sapiens, UniProt P25440). As to the kind of experiment: Inhibition of FAM-labeled ZBA248 binding to recombinant N-terminal His6-tagged BRD2 bromodomain 1 (72 to 205 residues) (unknown origin) expressed in Escherichia coli Rosetta2 DE3 after 30 mins by fluorescence polarization assay. Background: Fluorescence polarisation rises when a labelled molecule tumbles more slowly, as on binding a larger partner.

In assay [2] the target is T1, Bromodomain-containing protein 2. As to the kind of experiment: Inhibition of FAM-labeled ZBA248 binding to recombinant N-terminal His6-tagged BRD2 bromodomain 2 (349 to 460 residues) (unknown origin) expressed in Escherichia coli Rosetta2 DE3 after 30 mins by fluorescence polarization assay.

As usually defined, the pIC50 is the IC50 on a negative log10 scale, so that one unit is a factor of ten.

Each structure is given as a SMILES string. pIC50: −log10 of the molar value.

As to `Cc1sc2c(c1C)C(c1ccc(Cl)cc1)=N[C@@H](CC(=O)Nc1ccc(O)cc1)c1nnc(C)n1-2` [BIRABRESIB], the pIC50 was 7.48 in assay [1] and 7.61 in assay [2].
